By IC50 is commonly meant the point on the concentration scale where inhibition reaches its midpoint.

The values that follow come from patent US11338026B2, “Identification of immunologically protective neo-epitopes for the treatment of cancers” (THE UNIVERSITY OF CONNECTICUT, priority 2014, dated 2022).

For the experiment, the target named is T1, H-2 K^d (Mus musculus, UniProt P01902).
T1 sequence (P01902 22-368): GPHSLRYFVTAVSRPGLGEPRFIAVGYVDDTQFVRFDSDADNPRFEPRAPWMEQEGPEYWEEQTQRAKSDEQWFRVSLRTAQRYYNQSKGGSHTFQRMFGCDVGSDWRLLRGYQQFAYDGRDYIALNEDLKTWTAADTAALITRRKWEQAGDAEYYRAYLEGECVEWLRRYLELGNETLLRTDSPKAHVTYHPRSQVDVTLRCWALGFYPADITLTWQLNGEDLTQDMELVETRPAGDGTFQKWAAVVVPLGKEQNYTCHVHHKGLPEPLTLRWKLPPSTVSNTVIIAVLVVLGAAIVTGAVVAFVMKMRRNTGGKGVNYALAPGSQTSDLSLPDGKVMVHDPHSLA
T1 sequence (P01887 21-119 partner): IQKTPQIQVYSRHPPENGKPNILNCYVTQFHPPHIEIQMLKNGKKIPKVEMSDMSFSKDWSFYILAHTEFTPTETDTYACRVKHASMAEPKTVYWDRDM
The experiment is described as follows: Binding assays: inhibition of binding of a radiolabeled standard peptide to purified MHC molecules. On the procedure: Binding assays. Binding of peptides to H-2 K^d was determined using quantitative assays based on the inhibition of binding of a radiolabeled standard peptide to purified MHC molecules essentially as described previously. […] Under the conditions utilized, where [label]<[MHC] and IC50≥[MHC], the measured IC50 values are reasonable approximations of the dissociation constant values.

`CC[C@H](C)[C@H](NC(=O)[C@H](Cc1ccc(O)cc1)NC(=O)[C@@H](N)CCC(N)=O)C(=O)N[C@@H](Cc1c[nH]cn1)C(=O)N[C@@H](CO)C(=O)N[C@@H](C)C(=O)N[C@@H](CC(N)=O)C(=O)N[C@H](C(=O)N[C@@H](CC(C)C)C(=O)O)C(C)C` [Mapk1.1] came in with an IC50 of 0.2 nM.
